PubChem BioAssay AID493002 (Sanford-Burnham Center for Chemical Genomics, 2010)

Tested on: S. cerevisiae tim23-1 mutant growth, luminescence
Experiment: potency against tim23-1 yeast growth – luminescence, uHTS hits, dose response (AID 493002);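 further: yeast grown roughly 22 hours at 25 °C before the luminescence read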

| SMILES | IC50 |
| --- | --- |
| COc1ccc(-c2ccc(NC(=O)c3ccco3)cc2)nn1 | 14.3 µM |
| COc1cccc2c1C(=O)c1c(O)c3c(c(O)c1C2=O)C[C@@](O)(C(=O)CO)C[C@@H]3O[C@H]1C[C@H](N)[C@H](O)[C@H](C)O1 | 12.7 µM |
